# Experimental data: US20240425837A1 (Novo Nordisk, published 2024)
# Test system: human plasma-derived coagulation Factor X (FX)
substance,measurement,value
human plasma-derived coagulation Factor IXa (FIXa),"KM of FX activation by free FIXa (10 nM) with phospholipid vesicles, no compound",282 nM
